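Following 48 hours of exposure in 96-well plates, responses at five concentrations were used to interpolate endpoints linearly. The concentration for 50% growth inhibition is given as GI50.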
What was measured:
Test in all cases: DTP human tumour cell line panel, 48 h; in the data active means GI50 below about 0.43 µM; inactive means the rest
MDA-MB-231 breast = system: MDA-MB-231 breast
MCF7 breast = system: MCF7 breast
NCI/ADR-RES ovarian = system: NCI/ADR-RES ovarian
HCT-116 colon = system: HCT-116 colon

Measured: GI50

C[C@@H]1CCOC(=O)/C=C/C=C\C(=O)O[C@@H]2C[C@H]3O[C@@H]4[C@@H]5OC5(C)CCC4(COC(=O)[C@H]1O)[C@]2(C)[C@@]31CO1 (some centres undefined)
inactive: MDA-MB-231 breast 0.624 µM | MCF7 breast 12.9 µM | NCI/ADR-RES ovarian 14.2 µM | HCT-116 colon 3.53 µM

Source: PubChem BioAssay (NCI)
